Laboratory results reported in article PMC9859815, “Pharmacokinetics and bioequivalence evaluation of omeprazole and sodium bicarbonate dry suspensions in healthy Chinese volunteers” (Scientific Reports, 2023).

How the values were obtained:
[1] = CYP2C19 EM, Japanese; cited from earlier work
[2] = Single-dose, 2-sequence, 2-period crossover pharmacokinetic/bioequivalence study, fasting oral administration, healthy Chinese subjects (also by CYP2C19 phenotype and gender); assay type: in vivo, human; conditions: mean ± SD
Protocol: Forty subjects were randomly divided into two groups, with 20 patients in each group. The drugs were given to the patients of each group in the order of T-R and R-T in two cycles, with a single dose of 1 bag (each bag: 20 mg omeprazole + 1680 mg sodium bicarbonate). The subjects in each group fasted after 21:00 the night before administration. Collecting plasma samples at 0 h (within 60 min before administration) and after administration of 5 min, 10 min, 15 min, 20 min, 30 min, 45 min, 1 h, 1.5 h, 2 h, 3 h, 4 h, 6 h, 8 h, 10 h, 12 h (a total of 16 points) and stored at − 80 °C until analysis. The blood samples were centrifuged at 1700 g (4 °C) for 10 min within 1 h of collection. The centrifuged plasma was immediately aliquoted into 2 tubes with corresponding labels (1 for testing, 1 for backup, the volume of plasma in each tube should not be less than 500 µL) and stored at […] until analysis. The total time from whole blood collection to centrifugation to separate plasma and then stored in […] refrigerator should not exceed 2 h.
The concentration of omeprazole in EDTA-K2 anticoagulant human plasma was determined by HPLC–MS/MS, quantified by internal standard (internal standard: omeprazole-D3). The sample pretreatment method was the protein precipitation method. And the linear range of the omeprazole plasma concentration determination method was 4–4000 ng mL^−1, the minimum quantitative limit was 4 ng mL^−1.
The pharmacokinetic (PK) parameters evaluated in this study included maximum plasma omeprazole concentration (Cmax) and time to reach the maximum plasma concentration (Tmax) obtained directly from non-interpolated data, as well as the area under the plasma concentration curve of omeprazole at 0-t after administration (AUC0–t) using the linear trapezoidal method to calculate. Terminal elimination rate constant λz and the apparent terminal elimination half-life (T1/2) were also needed. AUC0–∞ (the AUC from time 0 to infinity) used the formula: AUC0–∞ = AUC0–t + Ct/λ(T1/2 = 0.693/λz) to calculate. […]

Cmax ([2]; CYP2C19 EM (N = 12)): 633.25 ± 295.94 ng/mL
T1/2 ([2]; CYP2C19 EM (N = 12)): 44.4 ± 11.4 min
Cmax ([2]; CYP2C19 PM (N = 4)): 1650.00 ± 451.66 ng/mL
Compound: COc1ccc2[nH]c([S+]([O-])Cc3ncc(C)c(OC)c3C)nc2c1 (stereo not shown) [omeprazole]
T1/2 [1]: 65.4 ± 4.8 min

Read-outs that look alike come from different tables or passages of the source.
